The values that follow are results of earlier work, collected in patent US20110301098A1, “TREATMENT FOR INTIMAL HYPERPLASIA AND RELATED CONDITIONS” (priority 2006, published 2011).

Read-outs that look alike come from different tables or passages of the source.

This data set concerns the target T1, C5 (Homo sapiens, UniProt P01031).
T1 construct: host or cells: patients (circulating endogenous C5)
The note with it: cited from earlier work.

[1] abbreviates: acute myocardial infarction, PCA group.

Consider “pexeluzimab: humanised monoclonal single-chain antibody fragment directed against C5 (Alexion Pharmaceuticals, Inc.)”, for which the infarct size result under setting [1] was “no reduction in infarct size”. Also, under setting [1], the mortality result is on record as “reduction in mortality”. Moreover, the “benefit as adjunctive therapy” value (acute myocardial infarction, in conjunction with thrombolytics) is “No benefit”. Besides, the “risk of death or myocardial infarction” value (patients undergoing bypass grafts only) is recorded as “did not reduce the risk” and the “risk of death or myocardial infarction” value (patients undergoing grafts with or without valve surgery) was “did reduce some risk”.
